Measured values taken from PubChem BioAssay AID504357 (The Scripps Research Institute Molecular Screening Center, 2011).
This is a selection; strong and weak results do not stand in their true shares. The source made the active and inactive calls. Cut-off read from the data, not from the text of the source: active = inhibition above about 22% (passing the limit was not always enough); inactive = the rest.

Sequences of proteins named here, by UniProt entry; tags and fusion partners are left off.
UniProt P35372, whole entry, looked up: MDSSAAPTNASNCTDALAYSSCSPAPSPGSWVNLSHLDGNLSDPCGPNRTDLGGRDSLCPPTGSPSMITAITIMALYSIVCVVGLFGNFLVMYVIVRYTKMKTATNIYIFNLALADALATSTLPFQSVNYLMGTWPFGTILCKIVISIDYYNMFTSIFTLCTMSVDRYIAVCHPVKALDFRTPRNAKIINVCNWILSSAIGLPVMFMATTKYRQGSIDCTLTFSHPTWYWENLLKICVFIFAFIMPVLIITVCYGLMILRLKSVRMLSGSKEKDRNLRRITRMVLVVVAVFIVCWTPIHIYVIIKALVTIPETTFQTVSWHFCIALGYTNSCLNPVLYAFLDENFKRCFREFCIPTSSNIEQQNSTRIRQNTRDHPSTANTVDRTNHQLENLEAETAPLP
UniProt P41143, whole entry, looked up: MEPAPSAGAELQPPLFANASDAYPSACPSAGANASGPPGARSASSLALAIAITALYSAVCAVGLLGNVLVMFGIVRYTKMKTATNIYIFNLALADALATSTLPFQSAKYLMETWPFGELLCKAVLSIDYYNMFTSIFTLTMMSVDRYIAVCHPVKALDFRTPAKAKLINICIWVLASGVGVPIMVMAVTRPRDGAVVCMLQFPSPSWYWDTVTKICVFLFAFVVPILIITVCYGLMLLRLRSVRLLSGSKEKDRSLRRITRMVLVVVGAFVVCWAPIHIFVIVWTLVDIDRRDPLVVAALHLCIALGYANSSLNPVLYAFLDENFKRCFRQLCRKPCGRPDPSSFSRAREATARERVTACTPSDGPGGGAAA

molecular target: Mu-type opioid receptor (Homo sapiens) + Delta-type opioid receptor (Homo sapiens) (UniProt P35372+P41143); assay: inverse agonists of MOR-DOR heterodimerization, primary screen, cell-based, luminescence (AID 504357); conditions: cell-based MOR-DOR heterodimer luminescence, inverse agonism; at 9.3 µM; stronger effect = higher value;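 note: 0% = cells with DMSO and 100% = wells without cells with DMSO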

Row | Structure (SMILES) | inhibition
1 | CCC(=O)Nc1nc2ccccc2n1CCN(C)C | inactive: 6.95%
2 | Cc1ccc2c(c1)C1CN(C)CCC1N2Sc1ccccc1[N+](=O)[O-] (stereo not given) | inactive: -4.13%
3 | CN(C)C(=O)CSc1nc2ccccc2n1CC(=O)N1CCN(c2ccccc2)CC1 | inactive: 5.2%
4 | CN(C)CCn1c(N)nc2ccccc21 | inactive: -5.42%
5 | C[C@H](O)[C@@H]1C(=O)N2CCc3ccc(-c4ccccc4)cc3[C@@H]2C[C@@H]1N(C)C(=O)c1ccc(C#N)cc1 | inactive: 6.06%
6 | O=C(CCNC(=O)N1CCn2c1nc1ccccc12)NCc1ccccc1Cl | inactive: 17%
7 | C[C@@H]1C=CCP(=O)(Oc2ccccc2)O1 (stereo not given in full) | inactive: 5.66%
8 | Cc1ccccc1CN(C)C(=O)COC(=O)C(O)(c1ccccc1)c1ccccc1 | inactive: 5.57%
9 | CC(C)(C)NC(=O)Cn1c(SCC(=O)Nc2nccs2)nc2ccccc21 | inactive: 12.3%
10 | CCOc1ccc(S(=O)(=O)N(C)c2ccc(OCC(=O)N3c4ccc(C)cc4C4CN(C)CCC43)cc2)cc1 (stereo not given) | inactive: 4.39%
11 | Cc1ccc2c(c1)C1CN(C)CCC1N2C(=O)Nc1cccc(Cl)c1 (stereo not given) | inactive: -29%
12 | Cc1ccccc1Oc1ccc2c(c1)[C@@H]1C[C@H](N(C)C(=O)Nc3cc(Cl)cc(Cl)c3)[C@H]([C@H](C)O)C(=O)N1CC2 | inactive: 14.3%
13 | COC(=O)C1(C)COP(=O)(NCc2ccccc2)OC1 (stereo not given) | inactive: 16.6%
14 | CC(NC(=O)CCCCCNC(=O)N1CCn2c1nc1ccccc12)c1ccccc1 (stereo not given) | inactive: 3.81%
15 | O=C(Cn1cnc2ccccc21)N/N=C/C(Br)=C/c1ccccc1 | inactive: -14.1%
16 | Cn1c(=O)c2c(ncn2CC(=O)N/N=C/C(Cl)=C/c2ccccc2)n(C)c1=O | inactive: 5.12%
17 | COC(=O)c1ccccc1NC(=O)Cn1c(-c2nonc2N)nc2ccccc21 | inactive: 15.2%
18 | Cc1ccc2c(c1)C1CN(C)CCC1N2C(=O)COc1ccc(N(C)S(=O)(=O)c2cccs2)cc1 (stereo not given) | inactive: 2.25%
19 | O=C(CCCCCNC(=O)N1CCn2c1nc1ccccc12)N[C@H](C(=O)O)c1ccccc1 | inactive: 17.3%
20 | CC(=O)c1ccc(N2CC2c2ccncc2)cc1 (stereo not given) | inactive: 21%
21 | Cc1ccc2c(c1)C1CN(C)CCC1N2S(=O)(=O)c1cccc(F)c1 (stereo not given) | inactive: 19.3%
22 | N#C/C(=C\c1ccc(N(CCBr)CCBr)cc1)C(N)=O | inactive: 15.4%
23 | O=C(Cn1c(SCC(=O)N2CCCc3ccccc32)nc2ccccc21)N1CCCC1 | inactive: 14.6%

Row | Structure (SMILES) | inhibition
24 | Cc1ccc(-c2csc(NCCn3c(C(F)(F)F)nc4ccccc43)n2)cc1 | inactive: 0.14%
25 | Cn1c(=O)c2c(nc(CN3CCN(C(=O)c4ccco4)CC3)n2CC(N)=O)n(C)c1=O | inactive: 3.77%
26 | O=C(Nc1nc2ccccc2n1CCN1CCCCC1)C1CCCCC1 | inactive: 11.2%
27 | CC1Cc2ccccc2N1C(=O)Cn1cnc2c1c(=O)n(C)c(=O)n2C (stereo not given) | inactive: 12.5%
28 | CC(NC(=O)CCNC(=O)N1CCn2c1nc1ccccc12)c1ccccc1 (stereo not given) | inactive: 8.05%
29 | CC(O)CNc1nc2ccccc2n1CC(=O)NCCc1ccc(Cl)cc1 (stereo not given) | inactive: 8.56%
30 | O=S(=O)(c1ccccc1)c1nnn2c1nc(NC1CCN(Cc3ccccc3)CC1)c1ccccc12 | inactive: 5.39%
31 | O=C(Nc1nc2ccccc2n1CCN1CCCCC1)c1ccco1 | inactive: -0.97%
32 | O=C(Cn1c(-c2cscn2)nc2ccccc21)Nc1ccccc1F | inactive: 13.9%
33 | CCC(=O)Nc1cccc(C(=O)/C=C/c2cc(Br)ccc2OC)c1 | inactive: 1.48%
34 | COc1ccccc1C(=O)Nc1ccc2c(c1)nc1n2CCN(C2CCCCC2)C1 | inactive: 13.3%
35 | O=C(Cn1cnc2c(NCc3ccccc3)ncnc21)N1CCN(c2ccccn2)CC1 | inactive: 14.5%
36 | Cc1ccc(CN2C(=O)c3ccccc3NC23CCN(Cc2ccccc2)CC3)cc1 | inactive: -11.9%
37 | CCCS(=O)(=O)N1CCn2c(nc3ccccc32)C1 | inactive: 3.7%
38 | CC(=O)NC(C)c1nc2ccccc2n1CC(=O)N1C(C)CCCC1C (stereo not given) | inactive: 14.4%
39 | O=C1NCN(c2ccccc2)C12CCNCC2 | inactive: -4.3%
40 | COc1ccc(NS(=O)(=O)c2cc(NC(=O)Cn3cnc4c3c(=O)n(C)c(=O)n4C)ccc2C)cc1 | inactive: 11.9%
41 | Cn1c(=O)c2c(ncn2CCNC2=NCCCCC2)n(C)c1=O | inactive: 10.7%
42 | CCOC(=O)CSc1nc2ccccc2n1CC(=O)N(C(C)C)C(C)C | inactive: 17.5%
43 | O=S(=O)(c1ccccc1)N1CCn2c(nc3ccccc32)C1 | inactive: -1.59%
44 | Cn1c(=O)c2c(ncn2CC(=O)N2CCN(C(=O)c3ccco3)CC2)n(C)c1=O | inactive: 20.3%
45 | CC(C)NC(=O)Cn1c(SCC(=O)N2c3ccccc3CC2C)nc2ccccc21 (stereo not given) | inactive: 10.6%
46 | O=P1(N(CCCl)CCCl)OCCC2CCCCN21 (stereo not given) | inactive: 8.73%

Row | Structure (SMILES) | inhibition
47 | O=C(c1ccc(Cl)cc1)N1CCn2c1nc1ccccc12 | inactive: 10.7%
48 | O=C(Cn1cnc2c(NCc3ccccc3)ncnc21)NCc1ccc2[nH]ccc2c1 | inactive: 3.46%
49 | Cc1ccc(Cn2c(=O)c3c(nc4n3CCN4Cc3ccco3)n(C)c2=O)cc1 | inactive: 0.58%
50 | Cc1nc2cc(C(F)(F)F)ccc2n1CCNc1nc(-c2cc(Cl)c(N)c(Cl)c2)cs1 | inactive: 5.7%
51 | CC(C)(C)C(=O)N1CCn2c1nc1ccccc12 | inactive: 17%
52 | O=C(Cn1c(-c2ccco2)nc2ccccc21)N1CCCCC1 | inactive: 10%
53 | Cn1c(=O)c2ncn(CC(=O)Nc3ccc(N4CCOCC4)cc3)c2n(C)c1=O | inactive: -2.43%
54 | CCOC(=O)C1CCCN(C(=O)Cn2cnc3c2c(=O)n(C)c(=O)n3C)C1 (stereo not given) | inactive: 6.75%
55 | O=C(C1CCCN1S(=O)(=O)c1cccc2cccnc12)N1CCn2c1nc1ccccc12 (stereo not given) | inactive: -16.8%
56 | CC(c1ccccc1)N1CCn2c(nc3cc(NS(C)(=O)=O)ccc32)C1 (stereo not given) | inactive: 17.1%
57 | Cc1nc2ccccc2n1C1CC(=O)N(Cc2ccccc2)C1=O (stereo not given) | inactive: -11%
58 | c1ccc(CN2CCN(CCN3CCn4c3nc3ccccc34)CC2)cc1 | inactive: 8.69%
59 | S=C(Nc1ccccc1)N1CCn2c1nc1ccccc12 | inactive: 9.51%
60 | CCNC(=S)/N=C(\N)N[N+](=O)[O-] | inactive: 6.41%
61 | COc1cccc(NC(=O)[C@H](C)NC(=O)N2CCn3c2nc2ccccc23)c1 | inactive: 13.6%
62 | O=C(NC1CCS(=O)(=O)C1)NP(=S)(Oc1ccccc1)Oc1ccccc1 (stereo not given) | inactive: -9.35%
63 | COc1cc(/C=N/NC(=O)Cn2cnc3c2c(=O)n(C)c(=O)n3C)ccc1O | inactive: 0.91%
64 | CCSc1nc2ccccc2n1CC(=O)N1CCOCC1 | inactive: -3.44%
65 | O=c1c2cc([N+](=O)[O-])ccc2[nH]c2c([N+](=O)[O-])cc([N+](=O)[O-])cc12 | inactive: -10.6%
66 | CN(C)CCn1cnc2ccccc21 | inactive: 11.9%
67 | CN(C)C(=O)Oc1noc2ccccc12 | inactive: 10.4%
68 | Cc1ccc(OCCNC(=O)Cn2cnc3c(=O)n(C)c(=O)n(C)c32)cc1C | inactive: 4.85%
69 | CC(NC(=O)COC(=O)C(O)(c1ccccc1)c1ccccc1)c1ccccc1 (stereo not given) | inactive: -2.97%

Row | Structure (SMILES) | inhibition
70 | CCc1cccc(C)c1N(C(=O)Cn1c(CO)nc2ccccc21)C(C)COC (stereo not given) | inactive: 6.54%
71 | CC1CCCN(C(=O)Cn2cnc3c2c(=O)n(C)c(=O)n3C)C1 (stereo not given) | inactive: 17.8%
72 | CCOC(=O)C1=C(Cn2cnc3ccccc32)NC(=O)NC1c1ccc(Cl)cc1 (stereo not given) | inactive: 2.42%
73 | Cc1ccccc1OP(=O)(Nc1ccccn1)Oc1ccccc1C | inactive: 1.12%
74 | Cc1ccc(CNC(=O)Cn2cnc3c(NC(=O)OCc4ccccc4)ncnc32)o1 | inactive: 14.8%
75 | C[C@H](O)[C@@H]1C(=O)N2CCc3ccc(-c4cccc(F)c4)cc3[C@@H]2C[C@@H]1N(C)C(=O)Nc1ccccc1 | inactive: -8.72%
76 | COCCN1CCn2c(nc3cc(Nc4nnc(C)c5ccccc45)ccc32)C1 | inactive: 16.7%
77 | Cn1c(=O)c2c(ncn2CC(=O)N2CCN(c3ccccc3)CC2)n(C)c1=O | inactive: 12.1%
78 | COCCNC(=O)Cn1c(=O)n(C)c2ccccc21 | inactive: 6.74%
79 | CCC(=O)N1C2C3N(C(=O)CC)C1C1N(C(=O)CC)C(C(N1C(=O)CC)N3C(=O)CC)N2C(=O)CC | inactive: -6.44%
80 | CC(/C=N\NC(=O)Cn1c(C)nc2ccccc21)=C\c1ccccc1 | inactive: -2.47%
81 | CCCC(=O)Nc1ccc2c(c1)nc1n2CCN(CCOC)C1 | inactive: 19.7%
82 | Cc1ccc(C)c(Cn2c(=O)c3c(nc4n3CCN4Cc3ccco3)n(C)c2=O)c1 | inactive: 16.3%
83 | Cc1ccc2c(c1)C1CN(C)CCC1N2C(=S)NC(=O)c1ccc(Cl)cc1Cl (stereo not given) | inactive: 18.8%
84 | Clc1ccc(N2CCN(Cc3c[nH]c4ncccc34)CC2)cc1 | inactive: -7.35%
85 | O=C(Cn1c(=O)n(CC(=O)NCc2ccccc2)c2ccccc21)NCc1ccccc1 | inactive: 3.12%
86 | Cc1ccc2c(c1)C1CN(C)CCC1N2S(=O)(=O)c1ccccc1 (stereo not given) | inactive: -0.51%
87 | CN1CCC(N(C)c2ccc(C(N)=O)cc2[N+](=O)[O-])CC1 | inactive: 3.75%
88 | CC(C)[C@H](NC(=O)N1CCn2c1nc1ccccc12)C(=O)NCCc1ccccc1 | inactive: 7.94%
89 | O=C1CC(N2CCC(n3c(=O)[nH]c4ccccc43)CC2)C(=O)N1Cc1ccccc1 (stereo not given) | inactive: 7.73%
90 | O=C(CCCCCNC(=O)N1CCn2c1nc1ccccc12)NCc1ccc(F)cc1 | inactive: 6.3%
